pIC50: −log10 of the molar value.
Columns and labels:
[1] = biological target: T1, recombinant Val122Ile TTR (Homo sapiens, UniProt P02766, V142I); assay: Mechano-enzymatic fibrillogenesis, TTR amyloid by ThT emission fluorescence; assay type: biochemical; details: equimolar ligand, 96 h pellets, normalized to 100 % without ligand, mean (SD)
[2] = biological target: TTR in whole human plasma (Homo sapiens, UniProt P02766); assay: Displacement of 125I-T4 from TTR in normal human plasma; assay type: binding; details: read-out: D50 plasma, wild type TTR, 30 min 37° C. with ligand, immunoprecipitation, mean of at least 3 replicates
[3] = biological target: isolated wild type TTR (Homo sapiens, UniProt P02766); assay: Displacement of 125I-T4 from isolated wild type TTR in buffer; details: concentration of ligand reducing binding of 125I-T4 by TTR by 50%, 125 nM TTR, pH 8.0, overnight 4° C., mean of at least 3 replicates; for pIC50: read-out: D50 buffer
[4] = biological target: Recombinant human wild type TTR (Homo sapiens, UniProt P02766); assay: Ligand binding strength by native mass spectrometry
[5] = biological target: (2H, 13C, 15N) TTR (Homo sapiens, UniProt P02766); assay: 2D NMR [1H,15N] TROSY of TTR-ligand complexes; details: equimolar ligand, 90 μM TTR, PBS pH 7.4, 310K
[6] = biological target: T1, recombinant Val122Ile TTR; assay: Mechano-enzymatic fibrillogenesis, TTR aggregation by turbidity at 400 nm; assay type: biochemical; details: equimolar ligand, Val122Ile TTR 9 μM, trypsin, 96 h; 100 % = protein without ligand; mean (SD)
[7] = biological target: native recombinant wild type TTR (Homo sapiens, UniProt P02766); assay: Kinetics of ligand binding by TTR (stopped flow quenching of intrinsic fluorescence)
[8] = Rat oral pharmacokinetics; details: 5 mpk
[9] = Rat IV pharmacokinetics; details: 1 mpk

Structure (SMILES)	% Aggregation (Fluorescence method) [1]	pIC50 [2]	pIC50 [3]	% Aggregation (Turbidity method) [6]	Rat Oral Cmax [8] [ng/mL]	Rat IV PK t½ [9] [h]	other results
O=C(O)CCc1cc(Cl)c(OCCCOCCCOc2c(Cl)cc(Nc3ccccc3C(=O)O)cc2Cl)c(Cl)c1	5.74 (3.50) %	5.77	7.13	8.64 (5.16) %	–	–	displacement of ligand from preformed TTR complex by T4 ([4]; four-fold molar excess of T4, MS immediately and after 24 h): only a small amount of T-304 is displaced from TTR after 24 h; dissociation voltage ([4]; lowest cone voltage at which apo TTR is at least 10% of holo TTR, gas phase): 110 V; binding mode by NMR chemical shift changes [5]: occupancy of both binding sites; rate of quenching reaction relative to mds84 ([7]; T-304 versus mds84): approximately 15 fold; rate constant k of ligand-induced quenching reaction ([7]; TTR and ligand 1 μM each): 0.0123 s⁻¹; burst phase amplitude ([7]; millisecond time scale, fluorescence quenching): 13%
O=C(O)c1ccc2nc(-c3cc(Cl)cc(Cl)c3)oc2c1	–	–	–	–	20066	16.4	–
O=C(O)CCc1cc(Cl)c(OCCCOCCOc2c(Cl)cc(Nc3ccccc3C(=O)O)cc2Cl)c(Cl)c1	5.21 (3.55) %	5.94	7.00	5.76 (2.79) %	1630	23	–
CCc1oc(-c2cc(Cl)c(OCCCOCCOc3c(Cl)cc(-c4nc(C(=O)O)c(CC)o4)cc3Cl)c(Cl)c2)nc1C(=O)O	18 (6) %	–	–	–	–	–	D50 buffer [3]: Weak binding

The next lines start with results.

% Aggregation (Fluorescence method) [1]	pIC50 [2]	pIC50 [3]	Structure (SMILES)	% Aggregation (Turbidity method) [6]	Rat Oral Cmax [8] [ng/mL]	Rat IV PK t½ [9] [h]	other results
15 (5) %	4.58	6.74	O=C(O)c1ccc2nc(-c3cc(Cl)c(OCCOCCCOc4c(Cl)cc(Nc5ccccc5C(=O)O)cc4Cl)c(Cl)c3)oc2c1	–	–	–	–
7 (2) %	4.86	6.89	CCc1oc(-c2cc(Cl)c(OCCOCCCOc3c(Cl)cc(Nc4ccccc4C(=O)O)cc3Cl)c(Cl)c2)nc1C(=O)O	–	–	–	–

Reference: patent US20230357134A1, “AGENTS FOR USE IN THE TREATMENT OF AMYLOIDOSIS” (UCL BUSINESS LTD, priority 2020, published 2023)
